Reference: article PMC9675574 (JCI Insight, 2022)

Target: T1, mouse trypsin isoform T20 (anionic trypsin) (Mus musculus, UniProt P07146)
T1 construct: made in house; host or cells: Escherichia coli BL21(DE3)
T1 sequence (P07146 24-246): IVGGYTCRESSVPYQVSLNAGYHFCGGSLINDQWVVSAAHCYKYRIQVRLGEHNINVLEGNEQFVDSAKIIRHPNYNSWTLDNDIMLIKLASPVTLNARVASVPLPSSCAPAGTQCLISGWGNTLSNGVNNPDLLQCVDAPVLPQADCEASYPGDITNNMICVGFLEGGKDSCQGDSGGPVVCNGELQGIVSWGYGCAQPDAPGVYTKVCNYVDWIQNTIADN
Experiment: Competitive inhibition kinetics of trypsin, GPR-pNA substrate
Type: biochemical
Conditions: Ki dabigatran, Individual fit, mean ± SD, n = 3

[H]/N=C(/N)c1ccc(NCc2nc3cc(C(=O)N(CCC(=O)O)c4ccccn4)ccc3n2C)cc1 [dabigatran]
Ki: 33.6 ± 4.8 nM
